According to ChEMBL document CHEMBL5543100 (Eur J Med Chem, 2024):

How the values were obtained:
[1] = in vivo; conditions: Balb/c, mouse, po, 40 mg/kg
[2] = in vivo; conditions: Balb/c, mouse, po, 20 mg/kg

| bioavailability at 24 h [1] | bioavailability at 24 h [2] | SMILES |
| --- | --- | --- |
| 37.5% |  | Cc1ccc(Nc2nc(NCCO)c3ccccc3n2)cc1 |
|  | 12.5% | CCCNc1ccc2ncc(-c3ccc4[nH]ncc4c3)n2n1 |
